# Results published in patent US9085555B2, “Complement pathway modulators and uses thereof” (priority 2011, dated 2015).
# Protein sequences, listed by entry. Tags and fused reporters are not part of them. Residues count along the entry.
# UniProt P00746, 26-253: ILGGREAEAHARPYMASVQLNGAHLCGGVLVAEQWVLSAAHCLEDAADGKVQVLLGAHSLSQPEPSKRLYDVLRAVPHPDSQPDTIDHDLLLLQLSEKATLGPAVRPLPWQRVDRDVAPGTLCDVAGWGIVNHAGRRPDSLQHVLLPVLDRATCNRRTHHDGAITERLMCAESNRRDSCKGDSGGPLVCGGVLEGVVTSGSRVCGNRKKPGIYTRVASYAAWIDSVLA
# Molecular target: Factor D (Homo sapiens (Human), UniProt P00746)
# Type: biochemical
row,Compound,IC50
1,"NC(=O)n1cc(NC(=O)N2[C@H](CNC(=O)Oc3cccc(Cl)c3F)C[C@H]3C[C@H]32)c2ccccc21 [Example 115, [(1R,3S,5R)-2-(1-Carbamoyl-1H-indol-3-ylcarbamoyl)-2-aza-bicyclo[3.1.0]hex-3-ylmethyl]-carbamic acid 3-chloro-2-fluoro-phenyl ester]",1540 nM
2,"NC(=O)n1cc(NC(=O)N2C[C@H](F)C[C@H]2CNC(=O)Oc2ccccc2)c2ccccc21 [Example 114, [(2S,4R)-1-(1-Carbamoyl-1H-indol-3-ylcarbamoyl)-4-fluoro-pyrrolidin-2-ylmethyl]-carbamic acid phenyl ester]",500 nM
